Values of other authors, collected in patent US20050154030A1, “Antimicrobial composition” (Microban Products Company, priority 2003, published 2005).

Details: commercial form, approximately 95% active

N-alkyl dimethylbenzyl ammonium saccharinate [ONYXIDE™ 3300]
solubility in water: insoluble in water
